Our source for the inhibition values is PubChem BioAssay AID588621 (Sanford-Burnham Center for Chemical Genomics, 2011).

Sequences of proteins named here, by UniProt entry; tags and fusion partners are left off.
UniProt P54829, whole entry: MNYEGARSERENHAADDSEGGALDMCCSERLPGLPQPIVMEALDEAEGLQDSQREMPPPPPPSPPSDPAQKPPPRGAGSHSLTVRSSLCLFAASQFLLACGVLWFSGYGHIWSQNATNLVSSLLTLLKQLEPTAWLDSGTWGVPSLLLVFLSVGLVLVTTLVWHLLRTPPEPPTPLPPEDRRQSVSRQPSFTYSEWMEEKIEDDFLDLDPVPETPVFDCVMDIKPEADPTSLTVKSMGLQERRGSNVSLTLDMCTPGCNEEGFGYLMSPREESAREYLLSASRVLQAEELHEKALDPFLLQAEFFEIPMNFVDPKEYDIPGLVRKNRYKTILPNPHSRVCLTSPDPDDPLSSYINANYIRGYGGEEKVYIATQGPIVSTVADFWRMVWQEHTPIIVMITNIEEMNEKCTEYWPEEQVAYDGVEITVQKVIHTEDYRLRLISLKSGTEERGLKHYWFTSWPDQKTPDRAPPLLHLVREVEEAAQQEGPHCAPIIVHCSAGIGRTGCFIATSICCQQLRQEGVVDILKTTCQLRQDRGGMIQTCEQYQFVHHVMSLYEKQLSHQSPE

The term inhibition denotes the drop in the measured response relative to a control, in per cent.

The entries are a selection whose mix differs from that of the whole data set. Some salts and complexes are drawn in separate pieces, as the source files them; their charges need not balance. Calls of active or inactive are those of the source.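 Rule for the calls: active = inhibition at 20 µM, scaled per plate between control wells, above about 37% (limit read from the data); inactive = the rest.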

In the assay the target is Tyrosine-protein phosphatase non-receptor type 5 (Homo sapiens) (UniProt P54829). Description: inhibition of human PTPN5 enzyme activity – biochemical, fluorescence intensity, uHTS, primary screen (AID 588621).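 Note: 0% = DMSO with enzyme and substrate and 100% = substrate only without enzyme.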 The following applies: recombinant STEP, OMFP fluorogenic substrate, at 20 µM, hits give high values. The gist of the method: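 Assay system: isolated STEP enzyme / Timing: 20 min at room temperature, dark / Doses: 20 µM, 1% DMSO / Technique: fluorescence intensity, excitation 480 nm, emission 540 nm / Reagent: fluorogenic phosphatase substrate OMFP at 25 µM final / Measure: percent inhibition scaled to no-enzyme and uninhibited-enzyme controls, plate-pattern corrected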
For the compound `COc1ccc2c(c1O)-c1c(O)c(OC)cc3c1[C@H](C2)[N+](C)(C)CC3.O=[N+]([O-])c1cc([N+](=O)[O-])c([O-])c([N+](=O)[O-])c1[O-]`, the inhibition was inactive: 0.4%. As for `O=C(OCCN1CCN(CCOCc2ccccc2)CC1)C(O)(c1ccccc1)c1ccccc1`, the figure is inactive: -4.7%.

As to `O=C(OC1CN2CCC1CC2)c1ccc([N+](=O)[O-])cc1` (configuration not stated), the inhibition is inactive: -0.9%.

`CC(C)c1ccc(OP(C)(=O)Nc2ccc(SC(F)(F)F)cc2)cc1` (configuration not stated): the inhibition was inactive: 0.6%. With `CP(=O)(Nc1ccccc1F)Oc1ccccc1` (configuration not stated), the inhibition is inactive: -1.4%.

`O=[N+]([O-])c1cc([N+](=O)[O-])c(Nc2ccc(Cl)cc2)c([N+](=O)[O-])c1`: the inhibition was inactive: 1.6%. Regarding `O=[N+]([O-])c1cc([N+](=O)[O-])c(OC2CCCCC2O)c([N+](=O)[O-])c1` (configuration not stated), the inhibition was inactive: 0.3%. As for `CCCCCOc1ccc(NP(C)(=O)Oc2ccc(Cl)cc2Cl)cc1` (configuration not stated), the figure is inactive: 0.1%. Next, `CP(=O)(Nc1ccccc1)Oc1ccc(F)cc1` (configuration not stated): inactive: 2.6%.

Regarding `CCN(CC)CCCOC(=O)C(O)(c1ccccc1)C1CCCCC1` (configuration not stated), the inhibition is inactive: -1.9%.

As to `Cc1c([N+](=O)[O-])cc([N+](=O)[O-])c(Br)c1[N+](=O)[O-]`, the inhibition is inactive: 1.3%. As for `COc1ccc(OP(C)(=O)Nc2ccc(SC(F)(F)F)cc2)cc1` (configuration not stated), the figure is inactive: -4.1%; as for `CCOC(=O)c1ccc(NP(C)(=O)Oc2ccc(F)cc2)cc1` (configuration not stated), inactive: -2.8%; as for `Cc1c(C(c2ccc3c(c2)OCO3)c2c(C)n(C)n(-c3ccccc3)c2=O)c(=O)n(-c2ccccc2)n1C.O=[N+]([O-])c1cc([N+](=O)[O-])c(O)c([N+](=O)[O-])c1`, inactive: -3.1%. Next, `Cc1cc(-c2cccc3ccccc23)c(C)cn1.O=[N+]([O-])c1cc([N+](=O)[O-])c(O)c([N+](=O)[O-])c1`: inactive: -0.9%; `O=[N+]([O-])c1cc([N+](=O)[O-])c(NCC2CCS(=O)(=O)C2)c([N+](=O)[O-])c1` (configuration not stated): inactive: 0.5%. As for `O=[N+]([O-])c1ccc(OP2(=O)COCCO2)cc1` (configuration not stated), the figure is inactive: 0.4%. As for `COc1ccc(NP(C)(=O)Oc2ccccc2OC)cc1` (configuration not stated), the inhibition is inactive: 0.9%.

On to `CN(C)CCOC(=O)C(O)(c1ccccc1)C1CCCCC1` (configuration not stated), for which the inhibition was inactive: -4.8%.

On to `COc1ccc(OP(C)(=O)Nc2cccc(Br)c2)cc1` (configuration not stated), for which the inhibition was inactive: -0.4%. As for `Cc1ccccc1NP(C)(=O)Nc1ccccc1C`, the figure is inactive: 0.1%; as for `CP(=O)(Nc1ccc2c(c1)OCCO2)Oc1ccccc1` (configuration not stated), inactive: 0%. Consider `CCOP(C)(=S)SCC(=O)NC(C)(CC)C(=O)O` (configuration not stated), for which the inhibition was inactive: -4.1%. Consider `CP(=O)(Nc1ccc(SC(F)(F)F)cc1)Oc1ccc(F)cc1` (configuration not stated), for which the inhibition was inactive: 1.9%. Next, `CN(C)C(=O)c1c([N+](=O)[O-])cc([N+](=O)[O-])cc1[N+](=O)[O-]`: inactive: -0.6%; `CP(=O)(Nc1ccc(Cl)cc1)Oc1ccc(F)cc1` (configuration not stated): inactive: -0.5%; `COc1ccccc1OP(C)(=O)Nc1ccccc1Br` (configuration not stated): inactive: -1.3%. As for `CC(C)(C)c1ccc(OP(C)(=O)O)cc1`, the inhibition is inactive: -1.5%. For the compound `CP(=O)(Oc1ccccc1)N1CCOC1=O` (configuration not stated), the inhibition was inactive: 0.9%. Next, `CCc1ccc(OP(C)(=O)Nc2cccnc2)cc1` (configuration not stated): inactive: 2.2%. Next, `COc1ccccc1OP(C)(=O)Nc1c(C)n(C)n(-c2ccccc2)c1=O` (configuration not stated): inactive: -0.3%; `O=C(OCCCN1CCCC1)C(O)(c1ccccc1)C1CCCCC1` (configuration not stated): inactive: -2.8%. As for `CCN(CC)CC(O)COC(=O)C(O)(c1ccccc1)C1CCCCC1` (configuration not stated), the figure is inactive: -1.6%. Turning to `COc1ccc(OP(C)(=O)Nc2ccc(Br)cc2)cc1` (configuration not stated), the inhibition was inactive: 1.2%. Next, `CP(=O)(OC12CC3CC(CC(C3)C1)C2)OC12CC3CC(CC(C3)C1)C2`: inactive: -2.2%; `CCOC(=O)c1ccc(NP(C)(=O)Oc2ccc(Cl)cc2)cc1` (configuration not stated): inactive: -1.4%; `CP(=O)(Nc1ccc(Cl)cc1Cl)Oc1ccccc1` (configuration not stated): inactive: -4.3%. Next, `CCCCCCCCCCCCCCCC1C[N+](C)(C)CCOP(C)(=O)O1` (configuration not stated): inactive: 5%. As for `CP(=O)(OCCOc1ccccc1)OCCOc1ccccc1`, the figure is inactive: -1.4%.

For `COc1ccc(OP(C)(=O)Nc2ccccc2Br)cc1` (configuration not stated), the inhibition is inactive: 12.5%. Next, `COc1ccccc1OP(C)(=O)Nc1ccc(C)c(C)c1` (configuration not stated): inactive: -1.1%; `O=C1C(O)=C([N+](=O)[O-])C(=O)C(O)=C1[N+](=O)[O-]`: active: 89.7%. Next, `Cc1cc(C)cc(OP(C)(=O)Nc2cccc(C(F)(F)F)c2)c1` (configuration not stated): inactive: 1.1%. Next, `CCc1ccc(OP(C)(=O)O)cc1`: inactive: 3.6%; `CP(=O)(Nc1ccccn1)Oc1ccccc1` (configuration not stated): inactive: -0.1%; `COc1ccccc1OP(C)(=O)Nc1ccc(C)cc1C` (configuration not stated): inactive: -3.6%. On to `Cc1c(NP(C)(=O)Oc2ccc(C(C)C)cc2)c(=O)n(-c2ccccc2)n1C` (configuration not stated), for which the inhibition is inactive: 4.3%. As for `O=[N+]([O-])c1cc([N+](=O)[O-])c(Nc2ccccn2)c([N+](=O)[O-])c1`, the figure is inactive: -0.7%; as for `CN(C)CCOC(=O)C(O)(c1ccccc1)C1CCCC1` (configuration not stated), inactive: -2%; as for `COc1ccc(OP(C)(=O)Nc2ccccn2)cc1` (configuration not stated), inactive: -0.1%. Next, `COc1ccccc1OP(C)(=O)Nc1ccc(Br)cc1` (configuration not stated): inactive: 2.4%; `CCN(CC)CCCOC(=O)C(O)(c1ccccc1)c1ccccc1`: inactive: 0.4%; `COc1ccccc1OP(C)(=O)Nc1cc(Cl)ccc1C` (configuration not stated): inactive: -1.2%.

As for `COc1ccc(OP(C)(=O)Nc2cccc(F)c2)cc1` (configuration not stated), the inhibition is inactive: -1.3%.

As to `Cc1cc(C)cc(OP(C)(N)=O)c1` (configuration not stated), the inhibition is inactive: -4.5%.

For the compound `CCOC(=O)c1ccc(NP(C)(=O)Oc2ccccc2)cc1` (configuration not stated), the inhibition is inactive: 3.8%. For `COc1ccccc1OP(C)(=O)Nc1ccc(C)cc1` (configuration not stated), the inhibition was inactive: 3.4%.

`Cc1ccc(NP(C)(=O)Oc2ccccc2)c(C)c1` (configuration not stated): the inhibition is inactive: -7%.

Consider `CC(C)(C)c1ccc(OP(C)(=O)Nc2ccc(SC(F)(F)F)cc2)cc1` (configuration not stated), for which the inhibition is inactive: -0.3%. As for `Cc1cccc(C)c1OP(C)(N)=O` (configuration not stated), the figure is inactive: -1.3%; as for `O=[N+]([O-])c1ccc2c(c1)C=Nc1ccccc1O2`, inactive: 1.3%; as for `O=[N+]([O-])c1cc([N+](=O)[O-])c(Nc2cccnc2)c([N+](=O)[O-])c1`, inactive: -3%.
